From PubChem BioAssay
This is a sample that favours compounds with a hit; in the whole collection about 16% have one here.
TDP1 cell noCPT: qHTS for Inhibitors of human tyrosyl-DNA phosphodiesterase 1 (TDP1): qHTS in cells in absence of CPT; DT40 Tdp1-/- hTDP1 cells, no CPT, ATP luminescence, 48 h; Potency, µM (doses to about 46.2 µM), without a hit: at the highest dose activity change, negative = growth inhibition, hits mostly inhibitors; 420,000 compounds, 15% hits; AID 686978, 2013; further: potency means the concentration at half of the fitted maximal effect; on the % scale 0 is the no-effect control and ±100 the full control effect; nearly all actives have a fitted effect of over 55% in size
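Compound effects on proliferation are scored in DT40 Tdp1-/-;hTDP1 cells in the absence of CPT. ATP levels (CellTiter-Glo luminescence) are recorded after a ≥48 hr, 37 °C incubation.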
miR-21 reporter: raises the signal of a miR-21 reporter. HeLa miR-21 FLuc reporter, luciferase, 48 h. 340,000 tested, under 10 active. Potency, µM (highest dose often 38.3 µM), for the others: at the highest dose reporter change, positive = more light; active = well fitted rising curve with a large enough effect; inconclusive = small, poorly fitted or top-dose-only effect; inactive = no such curve, though single readings can be large or run the other way;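 note: % of control where 0% means no effect; miR-21 action dims this reporter so a rising signal means less miR-21 action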
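Compounds were titrated across several concentrations (up to approximately 40 uM) and incubated 48 hours with HeLa miR-21-FLuc reporter cells (miR-21 target sequence downstream of FLuc, endogenous miR-21). Readout was firefly luciferase luminescence after lytic detection reagent.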
TDP1 cell CPT: DT40-hTDP1 cell growth loss with CPT; 420,000 compounds, 12% hits; AID 686979; chicken DT40 Tdp1-/-;hTDP1 cells + 20 nM CPT, ATP luminescence, 48 h; Potency, µM (highest dose often 46.2 µM), without a hit: top-dose activity change, negative = growth inhibition, most hits filed as inhibitors; further: potency means the concentration at half of the fitted maximal effect; on the % scale 0 is the no-effect control and ±100 the full control effect; nearly all actives have a fitted effect of over 55% in size
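Chicken DT40 Tdp1-/- cells stably complemented with human TDP1 were seeded at 400 cells/well in medium containing 20 nM camptothecin, exposed to pin-transferred compounds, and grown at 37 °C for at least 48 hr. Viability was read as ATP luminescence.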
TDP1 block: TDP1 (human) enzyme inhibition | AID 485290 | 350,000 compounds, 0.28% hits | Potency, µM (top dose mostly 130 µM), without a hit: at the highest dose activity change, negative = inhibition, hits mostly inhibitors | recombinant TDP1, AlphaScreen DNA substrate cleavage; further: potency means the concentration at half of the fitted maximal effect; on the % scale 0 is the no-effect control and ±100 the full control effect; nearly all actives have a fitted effect of over 40% in size
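Tdp1 1 nM final; 15 min RT w/ cpd; substrate 15 nM, 5 min; beads 10 ug/ml, 10 min; AlphaScreen read. Neg ctrl: no enzyme.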
uPA surface inh: cell surface uPA generation inhibition. AID 540303. 330,000 compounds, 0.31% hits. cell surface uPA generation assay, qHTS. Potency, µM (top dose mostly 38.3 µM), without a hit: at the top dose activity change, negative = inhibition, hits mostly inhibitors; active means well fitted inhibition curve with a large enough effect; inconclusive means small, poorly fitted or top-dose-only effect; inactive means no such curve, though single readings can be large or run the other way; tested in mouse RAW 264.7 cells; further: potency means the concentration at half of the fitted maximal effect; on the % scale 0 is the no-effect control and ±100 the full control effect; nearly all actives have a fitted effect of over 55% in size
* hit, by the source's call; ? = inconclusive; . = no result given; [ ] = another dose, or the depositor's remark. Unless noted, the call rests on the fitted dose curve; in most records, active means well fitted curve in the direction sought with a large enough effect; inconclusive means small, poorly fitted or top-dose-only effect, or another doubt; inactive means no such curve, though single readings can be large; an effect the other way counts as inactive or inconclusive.

SMILES	TDP1 cell noCPT	miR-21 reporter	TDP1 cell CPT	TDP1 block	uPA surface inh
O=C(Nc1ccccc1)Nc1cc(Cl)cc(Cl)c1	12µM*	?	6.5µM*	3%	-9%
COC(=O)c1cc(NC(=O)c2ccc(-c3ccccc3)cc2)ccc1Cl	-13%	-5%	-11%	4%	-4%
O=C(Nc1ccccc1)Nc1cc(OCC(F)(F)F)cc(OCC(F)(F)F)c1	2.9µM*	?	4.1µM*	0%	-13%
COCCCNC(=O)CS(=O)Cc1nc(-c2cccc(C)c2)oc1C (centres undefined)	-29%	0%	-19%	7%	.
CCCCCCNS(=O)(=O)c1ccc(NC(=O)C2CCCO2)cc1 (centres undefined)	10µM*	-1%	9.2µM*	5%	3%
O=C(Nc1ccc(S(=O)(=O)Nc2ccc(Cl)cc2)cc1)C1CCCO1 (centres undefined)	13µM*	7%	16µM*	0%	.
O=C(NS(=O)(=O)c1ccc(NC(=O)C2CCCO2)cc1)c1ccccc1 (centres undefined)	4%	-4%	8%	0%	.
CC(C)N(c1ccccc1)c1ccc(NC(=O)C2CCCO2)cc1 (centres undefined)	16µM*	-2%	?	4%	4%
COc1cc(NS(=O)(=O)c2ccc(NC(=O)C3CCCO3)cc2)nc(OC)n1 (centres undefined)	1%	-4%	9%	4%	.
O=C(Nc1ccc(N=Nc2ccccc2)c(NC(=O)C2CCCO2)c1)C1CCCO1 (centres undefined)	21µM*	13%	8.2µM*	8%	4%
CN(Cc1ccccc1)C(=O)c1cc(=O)[nH]c2ccccc12	0%	-3%	1%	0%	3%
COc1ccc(CCN(C)Cc2ccc(C(=O)Nc3ccccc3)cc2)cc1OC	?	13%	?	2%	-4%
CCCNC(=S)N1CCN(Cc2ccc3c(c2)OCO3)CC1	-26%	-8%	-26%	-5%	-1%
COc1ccc(CC(=O)Nc2cccc(-c3cn4ccccc4n3)c2)cc1	?	-25%	?	4%	-5%
O=C(Nc1ccc(NC(=O)c2cccs2)cc1)c1cccs1	-13%	-70%	-14%	.	4%
Cc1ccn(-c2ccc(NC(=O)c3cccs3)cc2)n1	12µM*	-41%	?	.	-7%
COc1ccc(CC(=O)Nc2ccc(-c3cn4ccccc4n3)cc2)cc1	?	-38%	13µM*	2%	-5%
O=C(Nc1ccc(-c2cn3ccccc3n2)cc1)c1cccs1	15µM*	-50%	18µM*	?	-9%
O=S(=O)(O)NC1CCCCC1	-6%	.	1%	9%	.
CCCCC1(c2ccc(F)cc2)NC(=O)N(CC(=O)N2CCN(C(=O)c3ccco3)CC2)C1=O (centres undefined)	-21%	-2%	-19%	2%[56.1 µM]	-17%
CC1CCN(C(=O)c2cccc(S(=O)(=O)N3CCN(c4ccccc4)CC3)c2)CC1	?	.	?	-5%	1%
Cc1ccc(C(=O)N2CCN(c3cccc(C)c3C)CC2)cc1S(=O)(=O)N1CCOCC1	23µM*	.	16µM*	1%[56.1 µM]	2%
CC1CCN(S(=O)(=O)c2cc(C(=O)N3CCN(c4ccccc4)CC3)ccc2Br)CC1	15µM*	.	23µM*	.	.
C=CCN(c1ccc(C(=O)N2CCN(c3ccc(F)cc3)CC2)cc1)S(C)(=O)=O	?	-1%	-19%	3%	0%
Cc1ccc(C(=O)N2CCN(c3ccccc3)CC2)cc1S(=O)(=O)N1CCCC1	?	14%	29µM*	3%	-8%

Other results.
SMILES	TDP1 cell noCPT	miR-21 reporter	TDP1 cell CPT	TDP1 block	uPA surface inh
CN(c1ccc(C(=O)N2CCN(c3ccc(F)cc3)CC2)cc1)S(C)(=O)=O	?	3%	13µM*	2%	8%
CCOC(=O)CNC(=O)N1CCN(S(=O)(=O)c2ccc3c(ccn3C)c2)CC1	.	-8%	.	8%	.
Cc1ccc(C(=O)N2CCCCC2)cc1S(=O)(=O)N1CCCC1	11%	-8%	19%	5%	2%
Cc1ccc(C(=O)N2CCN(c3ccc(F)cc3)CC2)cc1S(=O)(=O)N1CCCCC1	16µM*	19%	29µM*	4%	-5%
Cc1ccc(NC(=S)N2CCC(NC(=O)c3ccc(F)cc3)CC2)cc1	-15%	9%	-28%	-3%	-1%
CCCc1c(NC(=O)Nc2ccc(Cl)cc2Cl)cnn1-c1ccccc1	-19%	1%	-16%	0%	-7%
CCOC(=O)c1ccccc1NC(=O)Cn1c(=O)n(CCC(=O)N2CCc3ccccc3C2)c(=O)c2ccccc21	8.2µM*	7%	21µM*	8%	.
Cc1ccc(NC(=O)Cn2c(=O)n(CCC(=O)N3CCc4ccccc4C3)c(=O)c3ccccc32)c(C)c1	23µM*	13%	21µM*	-3%	.
CCc1ccc(NC(=O)Cn2c(=O)n(CCC(=O)N3CCc4ccccc4C3)c(=O)c3ccccc32)cc1	1%	1%	-8%	3%	.
O=C(CN1CCOCC1)NNC(=S)Nc1ccccc1	0%	0%	-3%	0%	0%
CC[C@@]1(C(=O)OC)N[C@H](CN(C)C(=O)Nc2ccc(F)cc2)[C@@H]2C(=O)N(Cc3ccccc3)C(=O)[C@@H]21	-23%	.	-27%	-1%	10%
Cc1ccc(CN2CCN(C(=O)c3cccc4ccccc34)CC2)cc1	23µM*	25%	?	.	-2%
Cc1cccc(NC(=O)N2CCN(Cc3ccccc3)CC2)c1	9%	-42%	4%	7%[56.1 µM]	.
Cc1cccc(CN2CCN(C(=O)c3ccccc3F)CC2)c1	-4%	2%	-8%	-11%	5%
Cc1cccc(CN2CCN(C(=O)CCl)CC2)c1	16µM*	?	15µM*	0%	-12%
Cc1cccc(CN2CCN(C(=O)c3cccc4ccccc34)CC2)c1	?	1%	16µM*	.	3%
Cc1ccccc1CN1CCN(C(=O)c2cccc3ccccc23)CC1	?	-1%	?	.	5%
CN(CC(=O)N1CCN(Cc2ccccc2)CC1)C(=O)Cc1cccc2ccccc12	13µM*	.	13µM*	1%[56.1 µM]	-2%
CC(C)OC(=O)CSc1nnc2c3ccccc3n(C)c2n1	7%	-8%	-15%	0%	-5%
COC(=O)c1ccc(S(=O)(=O)NCCSc2nnc3c4ccccc4n(C)c3n2)cc1	15µM*	-1%	?	-2%	.
CCN(CC)CCCN(Cc1cc2cc3c(cc2[nH]c1=O)OCCO3)C(=O)Nc1ccccc1	?	-16%	?	-3%	-4%
O=C(OCc1ccccc1)C1=[N+]([O-])OC(C(=O)OCc2ccccc2)C1c1c[nH]c2ccccc12 (centres undefined)	?	14%	?	9%	0%

Whole records from above. Values in the order: TDP1 cell noCPT, miR-21 reporter, TDP1 cell CPT, TDP1 block, uPA surface inh
Profile of O=C(Nc1ccccc1)Nc1cc(Cl)cc(Cl)c1 → 12µM*, ?, 6.5µM*, 3%, -9%
Profile of Cc1ccn(-c2ccc(NC(=O)c3cccs3)cc2)n1 → 12µM*, -41%, ?, ., -7%
Profile of CCCNC(=S)N1CCN(Cc2ccc3c(c2)OCO3)CC1 → -26%, -8%, -26%, -5%, -1%
Profile of CCc1ccc(NC(=O)Cn2c(=O)n(CCC(=O)N3CCc4ccccc4C3)c(=O)c3ccccc32)cc1 → 1%, 1%, -8%, 3%, .
Profile of Cc1ccc(NC(=S)N2CCC(NC(=O)c3ccc(F)cc3)CC2)cc1 → -15%, 9%, -28%, -3%, -1%
